## Antibody variant affinities, Ab-95 light chain, assay 2

The measurements come from Engelhart et al. 2022 (doi:10.1038/s41597-022-01779-4) through the FLAb antibody collection.

Target peptide (SARS-CoV-2 spike, HR2 region): PDVDLGDISGINAS

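The starting antibody came from a phage panning campaign against this peptide. In library AAYL52, one, two or three CDR residues were substituted; doubles and triples were drawn at random. The assay is AlphaSeq: two haploid yeast populations carry antibody and antigen on their surface. After mating in shaken culture at 30 °C for 16 h, diploids were selected and their barcode pairs sequenced. A regression on co-assayed BCL2-family reference pairs converts the normalised counts of each replicate to an apparent Kd. Mating was done three times.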

The variants keep the heavy chain, the linker and the frameworks of Ab-95 (scFv order VH, the linker GGGGSGGGGSGGGGS, VL).
VH: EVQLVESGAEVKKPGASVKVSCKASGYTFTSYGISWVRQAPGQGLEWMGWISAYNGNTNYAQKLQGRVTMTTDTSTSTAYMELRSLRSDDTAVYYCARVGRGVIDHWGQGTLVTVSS
VL: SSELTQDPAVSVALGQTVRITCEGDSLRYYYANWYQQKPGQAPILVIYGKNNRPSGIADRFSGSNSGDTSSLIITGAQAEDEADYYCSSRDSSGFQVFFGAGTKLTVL

The whole VL of each variant is written out. Affinities are written as log10 Kd with Kd in nM; a lower number is a better binder. A mean of the replicates is given; it leaves out those without a signal. An entry "ND" has no value in the source: the pair was not observed among the diploids in that replicate. This suggests poor binding but is not conclusive. In this assay the parent's reference entry averaged 2.31; its copy inside this library read 2.25. Background: pairings of library AAYL52 with three empty control strains gave a value in 28% of cases (median 3.91, 5th percentile 2.90). Values in that range, when seen in few replicates, are hard to tell from nonspecific mating. Also given: how often the same scFv was detected with the empty control strains, with their mean in brackets.

VL | log10 Kd, replicates | mean, log10 nM | signal with controls
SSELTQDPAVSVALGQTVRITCNGDCLDYYYANWYQQKPGQAPILVIYGKNNRPSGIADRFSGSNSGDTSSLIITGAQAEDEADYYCSSRDSSGFQVFFGAGTKLTVL | 4.00 ND 3.19 | 3.60 | 3/9 (3.79)
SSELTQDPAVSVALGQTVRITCEGDSLRYYYANWYQQKPGQAPILVIYGQYNRPSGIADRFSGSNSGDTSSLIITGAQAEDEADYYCSYRDSSGFQVFFGAGTKLTVL | 5.75 4.62 ND | 5.18 | 3/9 (3.84)
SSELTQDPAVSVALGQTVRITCEGDSLRYFYANWYQQKPGQAPILVIYGKNNRPSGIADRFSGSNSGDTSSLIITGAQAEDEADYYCSSRFCSGFQVFFGAGTKLTVL | 4.18 5.24 4.64 | 4.69 | 3/9 (4.56)
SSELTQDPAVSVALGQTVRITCEGDSYRYQYANWYQQKPGQAPILVIYGDNNRPSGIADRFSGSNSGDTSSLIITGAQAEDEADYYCSSRDSSGFQVFFGAGTKLTVL | 1.33 1.57 0.92 | 1.27 | 2/9 (3.62)
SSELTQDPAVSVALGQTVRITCEGRSLRIYYANWYQQKPGQAPILVIYGKNNRPSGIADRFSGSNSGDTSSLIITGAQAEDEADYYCSSRESSGFQVFFGAGTKLTVL | 3.33 4.81 4.25 | 4.13 | 5/9 (4.00)
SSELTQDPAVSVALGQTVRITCEGISTRTYYANWYQQKPGQAPILVIYGKNNRPSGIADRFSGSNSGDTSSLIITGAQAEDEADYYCSSRDSSGFQVFFGAGTKLTVL | 2.71 2.96 3.71 | 3.13 | 1/9 (4.32)
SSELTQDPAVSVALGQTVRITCNGDSLRYYYANWYQQKPGQAPILVIYGKNNRPSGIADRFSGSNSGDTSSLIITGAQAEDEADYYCSSRDSCGFIVFFGAGTKLTVL | 3.04 2.82 2.97 | 2.94 | 3/9 (3.83)
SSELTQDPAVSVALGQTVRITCEGDSLRYYYANWYQQKPGQAPILVIYGKNNRGSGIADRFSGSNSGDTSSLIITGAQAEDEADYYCSSRDSQGFQVFFGAGTKLTVL | 3.02 2.68 2.49 | 2.73 | 4/9 (3.78)
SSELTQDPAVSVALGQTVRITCEGDFLRYYYINWYQQKPGQAPILVIYGKNNRPSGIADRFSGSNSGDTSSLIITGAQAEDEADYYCSSRDSSGFQVIFGAGTKLTVL | 4.85 ND ND | 4.85 | 2/9 (4.58)
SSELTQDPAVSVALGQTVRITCEGQSLRYYYMNWYQQKPGQAPILVIYGKDNRPSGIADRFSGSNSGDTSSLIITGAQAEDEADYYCSSRDSSGFQVFFGAGTKLTVL | 4.07 ND ND | 4.07 | 3/9 (4.31)
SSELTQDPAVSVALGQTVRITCESDSLRYYYWNWYQQKPGQAPILVIYGKNNRPSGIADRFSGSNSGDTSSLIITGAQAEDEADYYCSSRDSSGFSVFFGAGTKLTVL | ND 3.26 3.58 | 3.42 | 5/9 (4.08)
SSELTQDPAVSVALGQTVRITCEGDWLRYYYANWYQQKPGQAPILVIYDKNNRPSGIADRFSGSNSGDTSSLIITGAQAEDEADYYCSSRDSSGFQVGFGAGTKLTVL | ND 1.96 ND | 1.96 | 1/9 (2.88)
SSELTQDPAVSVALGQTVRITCIGDSLRYYRANWYQQKPGQAPILVIYGKNNRPSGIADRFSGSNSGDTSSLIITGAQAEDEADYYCSSRQSSGFQVFFGAGTKLTVL | 3.54 ND ND | 3.54 | 0/9
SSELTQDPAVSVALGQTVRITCEGDSCRYPYANWYQQKPGQAPILVIYGKNNRPSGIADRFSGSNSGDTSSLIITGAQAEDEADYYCSSRDASGFQVFFGAGTKLTVL | ND 3.43 ND | 3.43 | 2/9 (3.98)
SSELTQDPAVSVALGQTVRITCEGDWLRYYYANWYQQKPGQAPILVIYGKNNRPSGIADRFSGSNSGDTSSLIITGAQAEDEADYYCSSRPSSGRQVFFGAGTKLTVL | ND ND ND | ND | 4/9 (4.39)
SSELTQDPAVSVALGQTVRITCEPDCFRYYYANWYQQKPGQAPILVIYGKNNRPSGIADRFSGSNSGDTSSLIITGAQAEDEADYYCSSRDSSGFQVFFGAGTKLTVL | ND 3.95 ND | 3.95 | 0/9
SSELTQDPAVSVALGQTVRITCEGDPLRYYYANWYQQKPGQAPILVIYGKNNRPSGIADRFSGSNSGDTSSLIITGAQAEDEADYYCSDRMSSGFQVFFGAGTKLTVL | 3.61 3.76 ND | 3.69 | 2/9 (3.96)
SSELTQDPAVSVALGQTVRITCEGDSLRYPYANWYQQKPGQAPILVIYFKNVRPSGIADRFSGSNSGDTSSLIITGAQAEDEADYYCSSRDSSGFQVFFGAGTKLTVL | 3.92 5.84 ND | 4.88 | 4/9 (4.18)
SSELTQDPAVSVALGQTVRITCEGDSFRQYYANWYQQKPGQAPILVIYGKNNRQSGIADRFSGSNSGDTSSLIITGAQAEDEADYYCSSRDSSGFQVFFGAGTKLTVL | ND ND 3.39 | 3.39 | 3/9 (4.41)
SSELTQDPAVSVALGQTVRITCERDSLRYYYATWYQQKPGQAPILVIYGKNNRPSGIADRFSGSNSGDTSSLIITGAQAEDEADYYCSKRDSSGFQVFFGAGTKLTVL | 5.29 ND ND | 5.29 | 6/9 (4.43)
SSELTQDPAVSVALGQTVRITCETDSLRYYYANWYQQKPGQAPILVIYNKINRPSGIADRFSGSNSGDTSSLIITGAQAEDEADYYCSSRDSSGFQVFFGAGTKLTVL | 3.72 2.81 ND | 3.27 | 0/9
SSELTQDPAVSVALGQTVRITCEGDSVRYYWAHWYQQKPGQAPILVIYGKNNRPSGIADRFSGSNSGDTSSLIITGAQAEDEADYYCSSRDSSGFQVFFGAGTKLTVL | ND 4.64 3.62 | 4.13 | 5/9 (4.11)